Our source for the hESC survival values is patent US9607202B2, “Methods of generating trophectoderm and neurectoderm from human embryonic stem cells” (UNIVERSITY OF PITTSBURGH—OF THE COMMONWEALTH SYSTEM OF …, priority 2009, dated 2017).

This assay deals with hESCs. As to the kind of experiment: hESC viability and OCT4 expression in minimal induction media. Format: cell-based, human. As to conditions: addition to minimal induction media with or without heparin. The text has this:
A media was designed to serve as a foundation for differentiation with two criteria: high viability and minimal exogenous pluripotency factors that would otherwise compete with differentiating factors. Two candidate starting media from which to devise a minimal basal media for TE-induction studies included StemPro, used primarily for hESC pluripotency maintenance, and RPMI with KSR (Zhang et al., 2008), a TE-supportive media. […] Thus, to maintain compatibility with StemPro-cultured hESC, a DMEM/F12-based minimal induction media (MIM, Table 1) was developed by testing short-term hESC viability (FIG. 7) and OCT4 expression (FIG. 2) after systematically reintroducing cell survival, but not pluripotency, components. […] Thus, MIM with heparin (Erb's Minimal Induction Media, EMIM) became a second candidate minimal media for TE-induction studies.
One criterion for derivation of a minimal induction media was that hESCs would be viable and continue to express the OCT4 pluripotency marker. […] Thus, MIM and EMIM provided a growth factor-deficient basal media that maintained hESC-competence for lineage-specific induction in the short-term (4 days) as determined by the presence of a pluripotent hESC morphology, continued OCT4 expression (FIGS. 2B-D) and the absence of TE-, mesoderm-, and extraembryonic endoderm-induction (FIGS. 2D and 9B).

As to “human recombinant albumin: human recombinant albumin media additive”, the hESC survival result is given as “reduced hESC survival”.
